High-throughput results deposited in PubChem BioAssay by National Center for Advancing Translational Sciences (NCATS).
Sampled rows, rich in hits. Any-hit rate of the full collection: about 2.5%.
Apoferritin bind – candidate novel general anesthetic via apoferritin binding; Potency, µM (highest dose often 77.5 µM), for inactives: at the top dose activity change, negative = displacement, actives largely listed as inhibitors; AID 485281; 350,000 compounds, 0.074% hits; apoferritin/1-aminoanthracene competitive binding, fluorescence; note: potency is the fitted concentration of half-maximal effect; % is set by controls: 0 for no effect and ±100 for the full control effect; nearly all actives have a fitted effect of over 20% in size
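Horse-spleen apoferritin (10 uM) in 50% saturated 1-aminoanthracene in PBS was incubated 10 min at room temperature with compound. Fluorescence (ex 380, em 535 nm) was normalized to free and bound 1-AMA, with concentration-response fitted by a four-parameter Hill equation.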
miR-21 reporter – miR-21 reporter, rising signal; HeLa miR-21 FLuc reporter, luciferase, 48 h; Potency, µM (titrated, usually from 38.3 µM), for the others: at the top dose reporter change, positive = more light; 340,000 tested, under 10 active; AID 2288; active = well fitted rising curve with a large enough effect; inconclusive = small, poorly fitted or top-dose-only effect; inactive = no such curve, though single readings can be large or run the other way;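 also: % of control where 0% means no effect; miR-21 action dims this reporter so a rising signal means less miR-21 action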
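Luminescence from a firefly luciferase reporter carrying a miR-21 binding site downstream, stably expressed under a CMV promoter in HeLa cells that make miR-21 endogenously, reports miRNA modulation after 48 h compound exposure up to approximately 40uM final.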
ClpP mod – qHTS Assay for Activators of ClpP | 340,000 compounds, 1.9% hits | purified B. subtilis ClpP, FRET peptide cleavage, 20 min | ATP-dependent Clp protease proteolytic subunit (Bacillus subtilis (strain 168)), P80244 | Potency, µM (doses to about 57.5 µM), without a hit: at the highest dose activity change, negative = active; active = well fitted falling curve with a large enough effect; inconclusive = small, poorly fitted or top-dose-only effect; inactive = no such curve, though single readings can be large or run the other way; note: potency is the fitted concentration of half-maximal effect; the source files actives as falling curves though it sought activators and does not explain the sign; nearly all actives have a fitted effect of over 65% in size
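Buffer: 100 mM Tris/HCl pH8, 100 mM KCl, 0.05% low protease BSA, 2.5% glycerol, 0.01% Tween-20. ClpP 10 microg/mL final; 20 min RT; delta FRET normalized to ADEP and DMSO controls.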
TrxR1 substrate – rat thioredoxin reductase 1 substrate activity; purified TrxR1 substrate turnover, NADPH consumption readout; 390,000 compounds, 0.01% hits; O89049; Potency, µM (series often up to 114 µM), inactives show top-dose activity change, negative = substrate turnover; note: potency is the fitted concentration of half-maximal effect; % is set by controls: 0 for no effect and ±100 for the full control effect; nearly all actives have a fitted effect of over 50% in size
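Rat TrxR1, dispensed at 90 nM, was prereduced with 400 uM NADPH (final) for 5 min at ~22 deg C, then incubated with compound 15 min before 400 uM selenite. A first-read NADPH fluorescence drop versus no-compound background flagged substrates.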
TrxR1 inh – rat TrxR1 inhibition. 390,000 compounds, 1% hits. Potency, µM (doses to about 114 µM), inactives show at the top dose activity change, negative = inhibition, hits mostly inhibitors. recombinant rTrxR1, NADPH fluorescence consumption, selenite substrate; note: potency is the fitted concentration of half-maximal effect; % is set by controls: 0 for no effect and ±100 for the full control effect; nearly all actives have a fitted effect of over 65% in size
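Rat TrxR1 (90 nM in the dispensed reagent) was pre-reduced with 400 uM NADPH for 5 min at room temperature, then incubated with compound for 15 min. After 400 uM selenite was added, NADPH fluorescence (Ex 340/Em 450 nm) was followed for 8 min.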
* hit, by the source's call; ? = inconclusive; / = not tested or not shown; [ ] = dose if it differs, or a comment. Unless noted, calls come from the whole dose curve; as a rule, active = well fitted curve in the direction sought with a large enough effect; inconclusive = small, poorly fitted or top-dose-only effect, or another doubt; inactive = no such curve, though single readings can be large; an effect the other way counts as inactive or inconclusive.

By UniProt entry, the sequences of proteins in these tests, tags left out.
ATP-dependent Clp protease proteolytic subunit (Bacillus subtilis (strain 168)), P80244, UniProt P80244, whole entry, looked up: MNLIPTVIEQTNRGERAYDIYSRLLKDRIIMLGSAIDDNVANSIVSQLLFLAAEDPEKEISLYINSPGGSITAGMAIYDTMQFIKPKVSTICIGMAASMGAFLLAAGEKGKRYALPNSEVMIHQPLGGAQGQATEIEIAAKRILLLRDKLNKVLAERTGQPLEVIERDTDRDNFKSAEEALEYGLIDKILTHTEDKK

SMILES | Apoferritin bind | miR-21 reporter | ClpP mod | TrxR1 substrate | TrxR1 inh
CCC(C(=O)OCC(=O)Nc1cc(Cl)ccc1Cl)c1ccccc1 (configuration not stated) | 1% | -6% | 25µM* | -9% | 5%[0.457 µM]
O=C(NCc1ccccc1)C1CCN(C(=O)c2cnn(-c3ccccc3)c2-n2cccc2)CC1 | 2% | 13% | -3% | -2% | 4%
COc1ccc(OC)c(NC(=O)c2csnn2)c1 | 1% | -3% | -1% | -8% | 18%
COc1cccc(-n2cnc3sc4c(c3c2=O)CCC4)c1 | ? | -26% | 32µM* | -4% | 3%[57.1 µM]
COc1cccc(-n2cnc3sc(-c4ccccc4)cc3c2=O)c1 | / | / | -1% | 3% | 11%
CCC(C(=O)NC1CCC(C)CC1)n1nc(C)c2sc3ccccc3c2c1=O (configuration not stated) | 40% | -16% | -22% | 36% | 15%
COc1ccccc1C(=O)NC(=O)CSc1nc(C)cs1 | / | / | 28µM* | 0% | 3%
COc1cc(-c2nc(Cn3nnc(C(=O)Nc4cccc(Cl)c4)c3C)c(C)o2)cc(OC)c1OC | -10% | -1% | 3% | 17% | -1%
CCOc1ccc(NC(=O)CN(C)C(=O)c2cc(-c3ccc(OC)cc3)nc3ccccc23)cc1OCC | / | / | 32µM* | 30% | 9%
CCCn1nc(C(=O)N(C)CC(=O)Nc2ccc(OCC)c(OCC)c2)c2ccccc2c1=O | / | / | 25µM* | -13% | -9%
CCCCn1nc(C(=O)N(C)CC(=O)Nc2cccc(F)c2)c2ccccc2c1=O | / | / | 1% | -11% | -17%
COc1ccc(NC(=O)CN(C)C(=O)CCCc2nc3ccccc3c(=O)[nH]2)cc1 | / | / | 1% | 2% | 12%[57.1 µM]
CCOc1ccc(NC(=O)CN(C)C(=O)CCCc2nc3ccccc3c(=O)[nH]2)cc1OCC | / | / | 16µM* | -2% | 3%
O=C(NCc1ccco1)c1c[nH]c2ccc(S(=O)(=O)Nc3ccc(F)cc3F)cc2c1=O | ? | 16% | ? | 3% | -22%
CCCCc1c(C)nc2c(OC)cccc2c1SCCC(=O)O | 2% | 1% | 32µM* | 10% | -17%
COc1ccc(/C=N/NC(=S)Nc2ccccc2)cc1COc1ccc(F)cc1F | -22% | -12% | 35µM* | 4%[57.1 µM] | 4%[57.1 µM]
COc1ccc(/C=N\NC(=O)c2ccc(F)cc2)cc1COc1ccccc1C(N)=O | -7% | -4% | -6% | 16% | 22%
Cc1ccccc1NC(=O)c1nc(S(C)(=O)=O)ncc1Cl | -4% | ? | -1% | 4% | ?
CCOC(=O)c1nc(S(C)(=O)=O)ncc1Cl | -17% | ? | 2% | 10% | 18µM*
CS(=O)(=O)c1ncc(Cl)c(C(=O)Nc2ccc(OC(F)F)cc2)n1 | -6% | ? | / | -13% | 40µM*
CS(=O)(=O)c1ncc(Cl)c(C(=O)Nc2ccc(N3CCOCC3)cc2)n1 | -3% | ? | 1% | 4% | 10µM*
CS(=O)(=O)c1ccc(C(=O)Nc2ccc(N3CCOCC3)cc2)c(Cl)c1 | -8% | 1% | / | 0%[57.1 µM] | 13%[57.1 µM]
CCOC(=O)c1nc(S(C)(=O)=O)ncc1N1CCOCC1 | -10% | -6% | 0% | 3% | 4%
O=C(NCCCc1nc2ccccc2n1Cc1cccc(Cl)c1)c1ccco1 | -7% | -1% | 0% | -8% | -13%
COc1cccc(CNC(=O)Cc2csc3ccccc23)c1OC | 6% | -30% | -1% | 0% | -11%
COc1oc(=O)c2cc(N)ccc2c1Cl | 67% | / | / | / | /
CCCCn1c(N)c(S(=O)(=O)c2ccc(C)cc2)c2nc3ccccc3nc21 | 83% | -1% | / | 86% | 11%
Cc1ccc(S(=O)(=O)c2c(N)n(NC(=O)c3ccco3)c3nc4ccccc4nc23)cc1 | 0% | 2% | 8.9µM* | 158% | -32%
Cc1ccc(S(=O)(=O)c2c(N)n(Cc3ccco3)c3nc4ccccc4nc23)cc1 | 103% | 10% | 14µM* | 146% | -15%
Cc1cccc(S(=O)(=O)c2c(N)n(Cc3ccco3)c3nc4ccccc4nc23)c1 | 51% | 9% | 6.3µM* | 118% | ?
Cc1ccc2[nH]cc(C(O)c3c[nH]c4ccc(C)cc34)c2c1 | / | / | -1% | 0% | 12%

Some of the entries above, reformatted:
Cc1ccc(S(=O)(=O)c2c(N)n(Cc3ccco3)c3nc4ccccc4nc23)cc1
  Apoferritin bind: 103%	miR-21 reporter: 10%	ClpP mod: 14µM*	TrxR1 substrate: 146%	TrxR1 inh: -15%

COc1oc(=O)c2cc(N)ccc2c1Cl
  Apoferritin bind: 67%	miR-21 reporter: /	ClpP mod: /	TrxR1 substrate: /	TrxR1 inh: /

Cc1cccc(S(=O)(=O)c2c(N)n(Cc3ccco3)c3nc4ccccc4nc23)c1
  Apoferritin bind: 51%	miR-21 reporter: 9%	ClpP mod: 6.3µM*	TrxR1 substrate: 118%	TrxR1 inh: ?

Cc1ccc(S(=O)(=O)c2c(N)n(NC(=O)c3ccco3)c3nc4ccccc4nc23)cc1
  Apoferritin bind: 0%	miR-21 reporter: 2%	ClpP mod: 8.9µM*	TrxR1 substrate: 158%	TrxR1 inh: -32%
